Reference: US20060275828A1 (CENTRE NATIONAL DE LA RECHERCHE SCIENTIFIQUE, published 2006)

Sequences of proteins named here, by UniProt entry; tags and fusion partners are left off. A change or cut given only in a name is not applied to a line headed by its entry.
UniProt P16610, whole entry: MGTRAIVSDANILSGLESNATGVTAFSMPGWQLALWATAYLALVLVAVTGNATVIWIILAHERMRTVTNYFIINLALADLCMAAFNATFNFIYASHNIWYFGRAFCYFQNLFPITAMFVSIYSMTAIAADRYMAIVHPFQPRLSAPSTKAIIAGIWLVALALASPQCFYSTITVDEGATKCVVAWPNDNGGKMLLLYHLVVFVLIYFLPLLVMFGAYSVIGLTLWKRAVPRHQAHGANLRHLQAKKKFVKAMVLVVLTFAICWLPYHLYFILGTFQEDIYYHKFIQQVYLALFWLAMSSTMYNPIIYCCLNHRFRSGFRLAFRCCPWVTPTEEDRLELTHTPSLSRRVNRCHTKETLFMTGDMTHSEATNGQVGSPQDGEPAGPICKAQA
UniProt P20366: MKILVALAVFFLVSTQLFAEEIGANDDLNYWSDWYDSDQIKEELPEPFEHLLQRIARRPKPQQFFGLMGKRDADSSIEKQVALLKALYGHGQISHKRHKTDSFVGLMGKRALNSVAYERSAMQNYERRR

Target: T1, wild-type rat NK2R receptor of tachykinins (construct pCEP4-NK2R), expressed on HEK 293 cells (rat, UniProt P16610 1-390)
T1 construct: whole, on cells; Stably expressed in HEK 293 cells; also called NK2R-WT; NK2R WT
Experiment: displacement of 3H SR 48968 on HEK 293 cells expressing NK2R-WT, filtration (FIG. 8a)
Method: The incubation is carried out for one hour at 4° C. Filtration is carried out at the end of incubation, as described in 3b).

**Q.** Which Ki does the source give for HKTDSFVGLM (peptide, UniProt P20366 98-107, looked up, mature; also called NKA; substance K) [neurokinin A] here?
**A.** Its Ki is 3.03 nM.
